{
  "sequences": {"note": "By UniProt entry, the sequences of proteins in these tests, tags left out. Residues count along the entry.", "UniProt P12822, 34-1310 limits assumed": "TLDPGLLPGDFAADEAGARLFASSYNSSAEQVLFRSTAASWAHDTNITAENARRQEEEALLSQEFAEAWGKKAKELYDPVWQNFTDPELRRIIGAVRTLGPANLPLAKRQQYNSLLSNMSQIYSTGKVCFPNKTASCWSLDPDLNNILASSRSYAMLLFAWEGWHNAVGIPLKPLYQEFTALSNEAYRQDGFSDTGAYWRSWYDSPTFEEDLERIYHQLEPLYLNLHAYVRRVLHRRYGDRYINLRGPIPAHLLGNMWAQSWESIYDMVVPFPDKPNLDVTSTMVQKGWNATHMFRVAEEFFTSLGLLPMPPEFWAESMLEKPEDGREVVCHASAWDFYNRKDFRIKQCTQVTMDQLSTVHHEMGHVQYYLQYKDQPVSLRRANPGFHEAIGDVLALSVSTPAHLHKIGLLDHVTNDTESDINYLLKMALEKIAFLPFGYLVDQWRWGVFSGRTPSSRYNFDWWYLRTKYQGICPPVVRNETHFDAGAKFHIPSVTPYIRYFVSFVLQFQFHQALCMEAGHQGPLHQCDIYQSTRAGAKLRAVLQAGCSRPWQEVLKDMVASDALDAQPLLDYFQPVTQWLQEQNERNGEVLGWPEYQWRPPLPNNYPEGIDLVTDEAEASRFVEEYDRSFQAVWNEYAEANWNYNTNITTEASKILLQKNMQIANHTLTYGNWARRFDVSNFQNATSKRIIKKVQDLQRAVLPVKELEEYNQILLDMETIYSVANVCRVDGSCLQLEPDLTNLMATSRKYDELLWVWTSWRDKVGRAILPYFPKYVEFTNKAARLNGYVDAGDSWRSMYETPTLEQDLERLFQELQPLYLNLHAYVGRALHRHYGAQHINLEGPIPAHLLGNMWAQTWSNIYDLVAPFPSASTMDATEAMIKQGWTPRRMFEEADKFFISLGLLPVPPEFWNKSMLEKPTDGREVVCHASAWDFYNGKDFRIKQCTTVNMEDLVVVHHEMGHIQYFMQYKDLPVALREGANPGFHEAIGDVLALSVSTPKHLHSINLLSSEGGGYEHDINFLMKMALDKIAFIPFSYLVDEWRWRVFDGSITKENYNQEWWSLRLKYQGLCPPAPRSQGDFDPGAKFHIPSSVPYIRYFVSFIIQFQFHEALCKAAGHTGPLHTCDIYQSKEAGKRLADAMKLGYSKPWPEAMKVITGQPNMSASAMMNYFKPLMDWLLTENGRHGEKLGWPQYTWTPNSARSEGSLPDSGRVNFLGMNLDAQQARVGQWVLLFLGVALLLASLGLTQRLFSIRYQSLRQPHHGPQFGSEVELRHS"},
  "source": "paper PMC10369073",
  "about": "“Production, identification, in silico analysis, and cytoprotection on H2O2-induced HUVECs of novel angiotensin-I-converting enzyme inhibitory peptides from Skipjack tuna roes” (Frontiers in Nutrition, 2023)",
  "origin": "cited, not measured here",
  "target": "ACE (Oryctolagus cuniculus, UniProt P12822)",
  "settings": "cited from earlier work",
  "procedure": "The IC50 values of TRP3, TRP6, TRP9, and TRP12 were 0.93 ± 0.07, 0.79 ± 0.06, 0.49 ± 0.06, and 0.67 ± 0.05 mg/mL, respectively, which were lower than those of ACEi peptides, such as LAPPSTRH (1.31 mg/mL) ([61]), GPWGPA ([24]), VAP (1.71 mg/mL) ([62]), MVGSAPGVL (3.09 mg/mL) ([63]), FRKE (6.97 mg/mL) ([18]), FQK (1.73 mg/mL) ([22]), YLRLHF (1.26 mg/mL) ([64]), NFRPQ (4.28 mg/mL) ([17]), and FEM (2.18 mg/mL) ([37]), etc. || Amino acids are another factor affecting the ability of ACEi peptides. […] Moreover, the C- and N-terminal amino acids are believed to play a crucial function in the activity of ACEi peptides ([21]). Yu et al. ([56]) reported that C-terminus (such as Trp, Tyr, Pro, or Phe) and N-terminus (such as Pro, Phe, Trp, or Met) hydrophobic amino acid residues have positive effects on the ACEi ...",
  "data": [
    {"molecule": "CC(C)[C@H](N)C(=O)N[C@@H](C)C(=O)N1CCC[C@H]1C(=O)O", "values": [
      {"measurement": "ACEi IC50", "value": 1.71, "unit": "mg/mL"}
    ]},
    {"molecule": "CSCC[C@H](NC(=O)[C@H](CCC(=O)O)NC(=O)[C@@H](N)Cc1ccccc1)C(=O)O", "values": [
      {"measurement": "ACEi IC50", "value": 2.18, "unit": "mg/mL"}
    ]}
  ]
}
